Test results taken from US6262064A, “Octahydrobenzo[f]quinoline-based receptor agonists and antagonists” (priority 1999, dated 2001).
Like-named read-outs stand apart in the source and are kept apart here.

By UniProt entry, the sequences of proteins in these tests, tags left out.
UniProt P61169, whole entry: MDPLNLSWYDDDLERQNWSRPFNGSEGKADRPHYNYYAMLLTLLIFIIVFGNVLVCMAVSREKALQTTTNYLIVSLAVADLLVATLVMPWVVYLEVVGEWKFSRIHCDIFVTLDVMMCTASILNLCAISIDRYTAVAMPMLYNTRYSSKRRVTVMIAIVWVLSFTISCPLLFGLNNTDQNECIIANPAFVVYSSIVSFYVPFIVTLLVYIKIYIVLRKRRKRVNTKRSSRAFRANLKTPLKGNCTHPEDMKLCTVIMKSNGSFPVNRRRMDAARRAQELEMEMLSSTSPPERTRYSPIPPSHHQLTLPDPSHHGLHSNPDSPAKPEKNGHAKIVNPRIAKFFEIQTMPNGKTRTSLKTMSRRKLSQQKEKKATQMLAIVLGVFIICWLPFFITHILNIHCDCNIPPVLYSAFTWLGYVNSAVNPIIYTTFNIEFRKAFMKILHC
UniProt P14842, whole entry: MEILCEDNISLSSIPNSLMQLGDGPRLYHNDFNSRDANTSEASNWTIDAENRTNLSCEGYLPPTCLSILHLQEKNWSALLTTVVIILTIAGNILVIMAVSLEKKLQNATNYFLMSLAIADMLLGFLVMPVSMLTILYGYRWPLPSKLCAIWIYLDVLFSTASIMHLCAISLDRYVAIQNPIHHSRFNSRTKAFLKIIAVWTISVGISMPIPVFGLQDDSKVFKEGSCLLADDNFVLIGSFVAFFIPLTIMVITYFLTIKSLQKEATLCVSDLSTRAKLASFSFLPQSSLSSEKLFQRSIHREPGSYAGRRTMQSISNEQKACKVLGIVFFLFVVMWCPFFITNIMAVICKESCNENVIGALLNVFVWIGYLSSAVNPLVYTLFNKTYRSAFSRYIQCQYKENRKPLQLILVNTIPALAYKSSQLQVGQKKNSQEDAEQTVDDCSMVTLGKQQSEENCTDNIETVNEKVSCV
UniProt P18901, whole entry: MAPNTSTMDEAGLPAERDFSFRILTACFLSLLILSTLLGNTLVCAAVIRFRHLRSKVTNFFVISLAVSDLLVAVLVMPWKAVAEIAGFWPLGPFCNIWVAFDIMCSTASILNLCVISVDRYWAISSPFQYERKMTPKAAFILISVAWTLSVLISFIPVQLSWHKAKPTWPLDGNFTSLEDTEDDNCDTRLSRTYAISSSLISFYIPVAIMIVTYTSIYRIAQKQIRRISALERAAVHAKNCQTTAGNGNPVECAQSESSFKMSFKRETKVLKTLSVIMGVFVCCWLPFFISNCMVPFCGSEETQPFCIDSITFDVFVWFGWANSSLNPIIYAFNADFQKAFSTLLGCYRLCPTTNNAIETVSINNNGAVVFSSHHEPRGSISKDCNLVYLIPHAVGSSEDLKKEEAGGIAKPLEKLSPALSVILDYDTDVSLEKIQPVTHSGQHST

Legend:
D2 dopamine receptor = target: T1, D2 dopamine receptor (Rattus norvegicus, UniProt P61169); experiment: Dopamine D2 binding assay ([3H]Sulpiride)
T1 construct: rat striatal membranes; from tissue; host or cells: rat striatum membranes
Experimental: The final ligand concentration was 0.5 nM.

[1] = target: alpha2-adrenergic receptor; experiment: Alpha2-adrenergic (non-selective) binding assay ([3H]RX 781094); design: species or system rat; details: Table V; read-out: Ki of reference compounds, alpha2-adrenergic
5HT2 serotonin receptor = target: T2, 5HT2 serotonin receptor (Rattus norvegicus, UniProt P14842); experiment: Serotonin (5HT2) binding assay ([3H]Ketanserin); details: Ki of reference compounds
T2 construct: rat cortical membranes; from tissue; host or cells: rat cortex membranes
Experimental: The final ligand concentration was 1.0 nM.

D1 dopamine receptor = target: T3, D1 dopamine receptor (Rattus norvegicus, UniProt P18901); experiment: Dopamine D1 binding assay ([3H]SCH 23390)
T3 construct: rat striatal membranes; from tissue; host or cells: rat striatum membranes
Experimental: The final radioligand concentration was 0.5 nM.

Which Ki (D2 dopamine receptor; Table II, read-out: Ki of reference compounds, D2) does the source give for `CCN(CC)CCNC(=O)c1cc(Cl)c(N)cc1OC` [Metoclopramide, reference compound] here?
The Ki was 10.2 nM.

How did the Ki (D2 dopamine receptor) turn out when `Oc1cc2c(cc1O)C(c1ccccc1)CNCC2` (centres unmarked) [SKF 38393, reference compound] was run?
The Ki was 475 nM.

How did the Ki [1] turn out when `COc1cc2nc(N3CCN(C(=O)c4ccco4)CC3)nc(N)c2cc1OC` [Prazosin, reference compound] was run?
The Ki was 29 nM.

Which Ki (5HT2 serotonin receptor) does the source give for `CCN(CC)C(=O)[C@@H]1C=C2c3cccc4[nH]cc(c34)C[C@H]2N(C)C1` [D-LSD, reference compound] here?
The Ki was 2.1 nM.

Which Ki (D1 dopamine receptor) does the source give for `O=C(CCCN1CCC2(CC1)C(=O)NCN2c1ccccc1)c1ccc(F)cc1` [Spiperone, reference compound] here?
The Ki was 0.1 nM.
